Values quoted from earlier work, collected in patent US20110118243A1, “ANTI-INFLAMMATORY DRUG DELIVERY SYSTEM” (priority 2008, published 2011).

Conditions: horse, over 24 hours

For `CCCCC1C(=O)N(c2ccccc2)N(c2ccccc2)C1=O` [phenylbutazone, 4-butyl-diphenyl-3,5-pyrazoidinedione], the “Share of administered dose accounted for by metabolites oxyphenbutazone and γ-hydroxyoxyphenbutazone” value is listed as 25-30%.
